The assay has as its target p38 kinase enzyme (Homo sapiens, UniProt Q16539). Put plainly: Inhibition of p38 kinase. The assay is classed as biochemical. The note with it: 33P-ATP, EGF peptide 661-681, 30° C. As to the method:
Standard Solution Preparations
The kinase buffer solution is prepared by combining 2.5 mL 1 M Tris-HCl (pH 7.5), 0.1 ml 1 M dithiothreitol, 1.0 mL 1 M magnesium chloride, and 300 μL 1% Triton X-100 and diluting to 100 mL with water. 84 mL of this kinase buffer solution is combined with 16 mL DMSO to prepare the 16% DMSO solution.
The 200 μM ATP solution is prepared by adding 102.6 μL 10 mM aqueous ATP, 25 μL ^33P-ATP, and 163.5 μL of 4 mM aqueous Epidermal Growth Factor Peptide 661-681 (Biomol, Catalog #P-121) in 5 mL kinase buffer solution.
The p38 kinase enzyme solution is prepared by dissolving 9.5 μL concentrated enzyme solution (250 ng p38 enzyme/μL kinase buffer solution) in 1536 μL kinase buffer solution. […]
10 μL of serially diluted compound is placed with a Beckmnan Multimek 96-well automated liquid handler to the assay plate. […] The plates are allowed to sit for 30 min and counted on a PE/Wallac Microbeta Trilux scintillation counter for ^33P-isotope.
All exemplified compounds were initially tested at 10 concentrations (20 μM−1 nM using 1:3 serial dilutions). […] IC50 values were calculated (IDBS ActivityBase software) for each compound using non-linear regression.

The chains behind the UniProt entries cited, without tags or fusion partners.
UniProt Q16539, whole entry: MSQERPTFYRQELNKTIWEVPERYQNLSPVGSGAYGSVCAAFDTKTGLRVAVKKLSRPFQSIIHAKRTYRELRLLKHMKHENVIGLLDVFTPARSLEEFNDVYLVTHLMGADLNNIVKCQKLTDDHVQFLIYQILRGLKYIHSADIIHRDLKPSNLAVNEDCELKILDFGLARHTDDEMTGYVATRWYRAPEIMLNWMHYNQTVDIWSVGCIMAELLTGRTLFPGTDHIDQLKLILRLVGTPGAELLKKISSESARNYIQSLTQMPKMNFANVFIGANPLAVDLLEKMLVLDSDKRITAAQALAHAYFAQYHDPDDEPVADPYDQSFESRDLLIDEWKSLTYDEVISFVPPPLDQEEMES

With `CC(C)(C)Cn1c(N)nc2ccc(-c3[nH]c(C(C)(C)C)nc3-c3ccc(F)cc3F)nc21` [EXAMPLE 11, 5-[2-tert-Butyl-5-(2,4-difluorophenyl)-3H-imidazol-4-yl]-3-(2,2-dimethylpropyl)-3H-imidazo[4,5-b]pyridin-2-ylamine methanesulfonate], the half-inhibitory concentration (IC50) (as a rule, the concentration at which inhibition is half-maximal) was 2.3 nM.

Source of the values: patent US7582652B2, “Kinase inhibitors” (Eli Lilly and Company, priority 2004, dated 2009).
